The chains behind the UniProt entries cited, without tags or fusion partners. Residues count along the entry.
UniProt P14867, 28-456: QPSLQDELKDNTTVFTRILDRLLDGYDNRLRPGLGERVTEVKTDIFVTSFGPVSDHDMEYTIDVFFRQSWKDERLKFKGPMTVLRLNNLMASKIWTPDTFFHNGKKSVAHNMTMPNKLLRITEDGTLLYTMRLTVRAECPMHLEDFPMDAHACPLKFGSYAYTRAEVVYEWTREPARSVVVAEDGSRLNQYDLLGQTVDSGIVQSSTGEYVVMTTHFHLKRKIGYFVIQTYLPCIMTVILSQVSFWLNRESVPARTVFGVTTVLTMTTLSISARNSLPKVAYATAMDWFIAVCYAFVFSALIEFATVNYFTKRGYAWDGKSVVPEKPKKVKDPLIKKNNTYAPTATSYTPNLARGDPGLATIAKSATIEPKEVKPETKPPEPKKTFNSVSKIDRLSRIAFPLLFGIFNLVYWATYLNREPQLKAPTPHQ
UniProt P47870, 26-512: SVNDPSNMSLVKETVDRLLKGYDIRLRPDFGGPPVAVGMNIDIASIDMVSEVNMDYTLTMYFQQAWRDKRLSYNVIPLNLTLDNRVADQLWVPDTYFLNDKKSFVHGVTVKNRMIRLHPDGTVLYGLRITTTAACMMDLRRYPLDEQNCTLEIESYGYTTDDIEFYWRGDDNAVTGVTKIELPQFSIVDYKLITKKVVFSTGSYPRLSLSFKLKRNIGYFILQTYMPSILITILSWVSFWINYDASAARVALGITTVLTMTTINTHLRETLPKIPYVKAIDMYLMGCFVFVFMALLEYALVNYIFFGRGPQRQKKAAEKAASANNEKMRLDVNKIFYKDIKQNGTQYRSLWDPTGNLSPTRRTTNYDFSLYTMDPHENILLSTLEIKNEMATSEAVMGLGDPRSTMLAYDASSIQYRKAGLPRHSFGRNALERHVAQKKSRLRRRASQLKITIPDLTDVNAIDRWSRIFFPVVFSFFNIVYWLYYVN
UniProt P31644, 32-462: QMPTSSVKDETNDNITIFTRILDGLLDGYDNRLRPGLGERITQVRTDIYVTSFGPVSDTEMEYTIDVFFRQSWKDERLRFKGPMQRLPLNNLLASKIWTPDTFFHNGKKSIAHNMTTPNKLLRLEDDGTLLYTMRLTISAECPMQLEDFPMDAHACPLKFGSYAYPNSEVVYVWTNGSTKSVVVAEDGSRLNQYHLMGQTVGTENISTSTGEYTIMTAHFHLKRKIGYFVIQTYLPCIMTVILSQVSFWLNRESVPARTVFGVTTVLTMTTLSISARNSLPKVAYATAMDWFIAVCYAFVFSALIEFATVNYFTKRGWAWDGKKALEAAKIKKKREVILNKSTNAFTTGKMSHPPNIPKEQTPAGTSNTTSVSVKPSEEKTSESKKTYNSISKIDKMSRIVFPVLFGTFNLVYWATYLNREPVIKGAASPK
UniProt P18505, 26-474: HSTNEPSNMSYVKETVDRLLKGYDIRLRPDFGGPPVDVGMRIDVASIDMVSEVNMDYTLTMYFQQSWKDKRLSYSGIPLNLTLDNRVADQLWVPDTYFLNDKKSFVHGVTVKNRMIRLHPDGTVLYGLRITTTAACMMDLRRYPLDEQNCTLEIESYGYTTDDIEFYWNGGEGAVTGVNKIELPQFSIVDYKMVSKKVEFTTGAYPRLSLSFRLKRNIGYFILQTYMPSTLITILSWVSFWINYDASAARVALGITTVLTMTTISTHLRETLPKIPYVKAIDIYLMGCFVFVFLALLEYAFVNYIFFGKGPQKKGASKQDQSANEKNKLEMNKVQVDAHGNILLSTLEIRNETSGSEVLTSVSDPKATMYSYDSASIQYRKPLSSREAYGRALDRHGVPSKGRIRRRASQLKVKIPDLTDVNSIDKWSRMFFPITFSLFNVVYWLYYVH
UniProt P47869, 29-451: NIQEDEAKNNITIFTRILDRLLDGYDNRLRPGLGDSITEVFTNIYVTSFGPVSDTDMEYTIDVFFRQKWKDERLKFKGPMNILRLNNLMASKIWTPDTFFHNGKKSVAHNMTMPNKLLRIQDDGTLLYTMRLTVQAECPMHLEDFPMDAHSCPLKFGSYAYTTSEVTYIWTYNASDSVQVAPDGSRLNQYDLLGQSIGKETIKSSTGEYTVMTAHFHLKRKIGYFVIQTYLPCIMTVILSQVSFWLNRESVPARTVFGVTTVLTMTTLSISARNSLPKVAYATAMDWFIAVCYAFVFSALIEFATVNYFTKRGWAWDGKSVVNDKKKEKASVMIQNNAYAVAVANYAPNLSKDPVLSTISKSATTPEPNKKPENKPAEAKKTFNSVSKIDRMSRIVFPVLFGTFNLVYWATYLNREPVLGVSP
UniProt P28472, 26-473: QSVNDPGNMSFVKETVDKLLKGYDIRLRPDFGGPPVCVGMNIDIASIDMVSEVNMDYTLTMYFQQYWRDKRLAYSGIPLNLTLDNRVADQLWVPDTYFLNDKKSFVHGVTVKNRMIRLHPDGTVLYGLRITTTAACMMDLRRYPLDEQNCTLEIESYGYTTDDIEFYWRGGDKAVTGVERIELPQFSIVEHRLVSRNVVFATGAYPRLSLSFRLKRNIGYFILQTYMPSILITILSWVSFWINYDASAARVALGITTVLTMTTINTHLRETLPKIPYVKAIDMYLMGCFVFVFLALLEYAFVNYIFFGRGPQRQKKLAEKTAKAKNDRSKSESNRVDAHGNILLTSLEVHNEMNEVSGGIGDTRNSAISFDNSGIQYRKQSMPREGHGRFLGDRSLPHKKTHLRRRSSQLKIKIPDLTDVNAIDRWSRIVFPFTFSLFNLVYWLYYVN
UniProt P34903, 29-492: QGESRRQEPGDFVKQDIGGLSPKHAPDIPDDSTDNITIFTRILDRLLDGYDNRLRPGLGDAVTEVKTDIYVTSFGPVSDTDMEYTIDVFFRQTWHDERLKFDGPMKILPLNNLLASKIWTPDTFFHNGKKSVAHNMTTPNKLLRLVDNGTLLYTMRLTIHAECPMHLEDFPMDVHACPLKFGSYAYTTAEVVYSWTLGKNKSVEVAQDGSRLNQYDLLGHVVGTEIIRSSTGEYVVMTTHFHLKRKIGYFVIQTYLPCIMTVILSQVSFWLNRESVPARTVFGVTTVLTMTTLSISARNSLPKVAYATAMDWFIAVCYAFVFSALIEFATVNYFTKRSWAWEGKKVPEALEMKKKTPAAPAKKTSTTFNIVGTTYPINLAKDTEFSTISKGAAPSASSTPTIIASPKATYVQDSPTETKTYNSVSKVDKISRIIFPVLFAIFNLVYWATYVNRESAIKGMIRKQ
UniProt P48169, 36-554: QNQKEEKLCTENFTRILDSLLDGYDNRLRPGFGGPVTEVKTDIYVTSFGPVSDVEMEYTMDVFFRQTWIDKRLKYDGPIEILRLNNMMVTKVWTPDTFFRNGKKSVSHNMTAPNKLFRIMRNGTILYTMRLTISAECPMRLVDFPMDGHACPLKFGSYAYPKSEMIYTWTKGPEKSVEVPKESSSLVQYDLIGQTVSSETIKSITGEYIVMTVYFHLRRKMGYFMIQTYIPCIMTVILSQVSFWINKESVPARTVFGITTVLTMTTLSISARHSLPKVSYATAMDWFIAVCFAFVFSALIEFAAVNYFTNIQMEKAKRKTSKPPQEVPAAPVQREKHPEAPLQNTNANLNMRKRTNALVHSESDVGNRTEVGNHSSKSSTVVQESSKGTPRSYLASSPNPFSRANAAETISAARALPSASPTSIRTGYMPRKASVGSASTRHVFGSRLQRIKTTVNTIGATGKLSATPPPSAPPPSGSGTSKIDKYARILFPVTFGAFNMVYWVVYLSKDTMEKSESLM

In paper PMC4106271 (Journal of Medicinal Chemistry, 2014):

Assays:
α1β2γ2S GABAA receptors = target: T1, α1β2γ2S GABAA receptors (Homo sapiens, UniProt P14867+P47870); assay: Two-microelectrode voltage clamp, IGABA modulation, α1β2γ2S; format: cell-based; settings: for IGABA-max (%) / Emax: maximal IGABA enhancement, GABA EC3–7, Xenopus oocytes; for Emax: read-out: IGABA-max (%)
T1 construct: expressed in transfected cells; host or cells: Xenopus laevis oocytes injected with cRNA (pCMV cDNA templates)
Description: (§1) Preparation of stage V–VI oocytes from X. laevis and synthesis of capped runoff poly(A) cRNA transcripts from linearized cDNA templates (pCMV vector) was performed as previously described.[49] Female X. laevis frogs (Nasco) were anesthetized by 15 min incubation in a 0.2% MS-222 (methanesulfonate salt of 3-aminobenzoic acid ethyl ester; Sigma–Aldrich, Vienna, Austria) solution before removal of parts of the ovaries. Follicle membranes from isolated oocytes were enzymatically digested with 2 mg/mL collagenase (type 1A, Sigma–Aldrich, Vienna, Austria).
(§2) Selected oocytes were injected with 10–50 nL of DEPC-treated water (diethyl pyrocarbonate, Sigma, Vienna, Austria) containing the different GABAA cRNAs at a concentration of approximately 300–3000 pg·nL^–1·subunit^–1.
(§3) To ensure expression of the γ2S subunit in the case of α1/2/3/5β2/3γ2S receptors, cRNAs were mixed in a ratio of 1:1:10. For expression of receptors composed of α4β2γ2S and α1β1γ2S, cRNAS were mixed in a ratio of 3:1:10. The amount of cRNAs was determined by means of a NanoDrop ND-1000 (Kisker-Biotech, Steinfurt, Germany).
(§4) Oocytes were stored at +18 °C in modified ND96 solution (90 mM NaCl, 1 mM CaCl2, 1 mM KCl, 1 mM MgCl2·6H2O, and 5 mM HEPES [4-(2-hydroxyethyl)-1-piperazineethanesulfonic acid], pH 7.4, all from Sigma–Aldrich, Vienna, Austria).
(§5) Chloride currents through GABAA receptors (IGABA) were measured at room temperature (+21 ± 1 °C) by means of a two-microelectrode voltage clamp technique making use of a Turbo TEC-05X amplifier (npi electronic, Tamm, Germany). IGABA were elicited at a holding potential of –70 mV. Data acquisition was carried out by means of an Axon Digidata 1322A interface using pCLAMP v.10 (Molecular Devices, Sunnyvale, CA). The modified ND96 solution was used as bath solution. Microelectrodes were filled with 2 M KCl and had resistances between 1 and 3 MΩ.
GABA and the studied derivatives were applied by means of the ScreeningTool (npi electronic, Tamm, Germany) fast perfusion system as described previously.[50] To elicit IGABA, the chamber was perfused with 120 μL of GABA- or compound-containing solution at a volume rate of 300 μL/s.[34] Care was taken to account for possible slow recovery from increasing levels of desensitization in the presence of high drug concentrations. The duration of washout periods was therefore extended from 1.5 min (<10 μM compounds) to 30 min (≥10 μM compounds). Oocytes with maximal current amplitudes >3 μA were discarded to exclude voltage clamp errors.
Stimulation of chloride currents by modulators of the GABAA receptor was measured at a GABA concentration eliciting between 3% and 7% of the maximal current amplitude (EC3–7). The GABA EC3–7 was determined for each oocyte individually. Enhancement of the chloride current was defined as (IGABA+compd/IGABA) – 1, where IGABA+compd is the current response in the presence of a given compound and IGABA is the control GABA current. IGABA-max reflects the maximal IGABA enhancement. Concentration–response curves were generated and the data were fitted by nonlinear regression analysis using Origin Software (OriginLab Corp.). Data were fitted to the equation 1/(1 + (EC50/[compound])^nH), where nH is the Hill coefficient. Each data point represents the mean ± SEM from at least three oocytes and ≥2 oocyte batches. Statistical significance was calculated by paired Student t-test with a confidence interval of <0.05.

α5β2γ2S GABAA receptors = target: T2, α5β2γ2S GABAA receptors (Homo sapiens, UniProt P31644+P47870); assay: Two-microelectrode voltage clamp, IGABA modulation, α5β2γ2S; format: cell-based; settings: Xenopus oocytes
T2 construct: expressed in transfected cells; host or cells: Xenopus laevis oocytes injected with cRNA (pCMV cDNA templates)
Description: as §1, with “Austria). […]” for “Austria).”
(§6) To ensure expression of the γ2S subunit in the case of α1/2/3/5β2/3γ2S receptors, cRNAs were mixed in a ratio of 1:1:10. […] The amount of cRNAs was determined by means of a NanoDrop ND-1000 (Kisker-Biotech, Steinfurt, Germany). […]
(§7) Chloride currents through GABAA receptors (IGABA) were measured at room temperature (+21 ± 1 °C) by means of a two-microelectrode voltage clamp technique making use of a Turbo TEC-05X amplifier (npi electronic, Tamm, Germany). […]
(§8) Stimulation of chloride currents by modulators of the GABAA receptor was measured at a GABA concentration eliciting between 3% and 7% of the maximal current amplitude (EC3–7). The GABA EC3–7 was determined for each oocyte individually. […] Statistical significance was calculated by paired Student t-test with a confidence interval of <0.05.

α1β1γ2S GABAA receptors = target: T3, α1β1γ2S GABAA receptors (Homo sapiens, UniProt P14867+P18505); assay: Two-microelectrode voltage clamp, IGABA modulation, α1β1γ2S; format: cell-based; settings: Xenopus oocytes
T3 construct: expressed in transfected cells; host or cells: Xenopus laevis oocytes injected with cRNA (pCMV cDNA templates)
Description: as §1, with “Austria). […]” for “Austria).”
as §6, §7, §8

[1] = Estimation of plasma levels after ip application (UHPLC-MS/MS); format: in vivo, mice; settings: mouse plasma
Description: Trunk blood from male C57BL/6N (6 months) was taken 15, 30, and 60 min after ip application of 23 and 25 (doses 1, 3, and 10 mg/kg body weight; injection solutions were prepared as described for behavioral analysis). At each time point, mice were euthanized and blood samples (500–800 μL) were collected and compiled into ethylenediaminetetraacetic acid (EDTA)-coated microtubes (1.6 mg of EDTA/sample) and centrifuged at 12 000 rpm for 5 min at 4 °C. Plasma samples were transferred into 1.5 mL tubes and stored at −80 °C until analysis.
Two separate sets of 23 and 25 stock solutions were prepared in DMSO for making calibrators and quality control (QC) samples. Plasma calibrators were prepared by spiking corresponding stock solutions into a blank plasma sample. The following 23 and 25 concentrations were added: 20, 50, 100, 250, 500, 1000, and 2000 ng/mL. The same blank plasma and both stock solutions (for QC) were used to generate three level plasma QC samples at 60, 1000, and 1600 ng/mL for both 23 and 25.
Plasma proteins were precipitated by the addition of 50 μL of WS at 200 ng/mL of the corresponding IS: 22 (for 23) or 24 (for 25) and 500 μL of ice-cold acetonitrile to 20 μL of K3EDTA mouse plasma. Samples were vortexed at 1400 rpm for 10 min and then centrifuged at 13200g for 20 min at 10 °C. […]
Quantification was performed on a 1290 Infinity LC system coupled with a 6460 triple quadrupole mass spectrometer with Jet Stream Technology, and data was processed with a MassHunter Workstation Software version B.06.00 (Agilent; Waldbronn, Germany). […]
MS parameters were manually optimized as follow: drying N2 gas of 320 °C at a flow rate of 10 L/min, nebulizer pressure of 20 psi, sheath N2 gas of 400 °C at a flow rate of 11 L/min, nozzle voltage of 0 V, capillary voltage of 2.5 kV, and delta EMV 0 V. Quantification was determined in multiple reaction monitoring (MRM) mode with an ESI-MS/MS system in positive ionization mode. […]

α2β2γ2S GABAA receptors = target: T4, α2β2γ2S GABAA receptors (Homo sapiens, UniProt P47869+P47870); assay: Two-microelectrode voltage clamp, IGABA modulation, α2β2γ2S; format: cell-based; settings: Xenopus oocytes
T4 construct: expressed in transfected cells; host or cells: Xenopus laevis oocytes injected with cRNA (pCMV cDNA templates)
Description: as §1, with “Austria). […]” for “Austria).”
as §6, §7, §8

α1β3γ2S GABAA receptors = target: T5, α1β3γ2S GABAA receptors (Homo sapiens, UniProt P14867+P28472); assay: Two-microelectrode voltage clamp, IGABA modulation, α1β3γ2S; format: cell-based
T5 construct: expressed in transfected cells; host or cells: Xenopus laevis oocytes injected with cRNA (pCMV cDNA templates)
Description: as §1, §2, §3, §4
as §5, with “The modified ND96 solution was used as bath solution. Microelectrodes were filled with 2 M KCl and had resistances between 1 and 3 MΩ.” left out
as §8

α3β2γ2S GABAA receptors = target: T6, α3β2γ2S GABAA receptors (Homo sapiens, UniProt P34903+P47870); assay: Two-microelectrode voltage clamp, IGABA modulation, α3β2γ2S; format: cell-based; settings: Xenopus oocytes
T6 construct: expressed in transfected cells; host or cells: Xenopus laevis oocytes injected with cRNA (pCMV cDNA templates)
Description: as §1, with “Austria). […]” for “Austria).”
as §6, §7, §8

α4β2γ2S GABAA receptors = target: T7, α4β2γ2S GABAA receptors (Homo sapiens, UniProt P47870+P48169); assay: Two-microelectrode voltage clamp, IGABA modulation, α4β2γ2S; format: cell-based; settings: Xenopus oocytes
T7 construct: expressed in transfected cells; host or cells: Xenopus laevis oocytes injected with cRNA (pCMV cDNA templates)
Description: as §1, with “Austria). […]” for “Austria).”
as §6, §7, §8

[2] = 100 μM compound, GABA EC3–7, Xenopus laevis oocytes, mean ± SEM

| Compound | activation at 100 µM (α1β2γ2S GABAA receptors; [2]) [%] | IGABA-max (%) (α1β2γ2S GABAA receptors; mean ± SEM) | Emax (α1β2γ2S GABAA receptors; mean ± SEM) [%] | also measured |
| --- | --- | --- | --- | --- |
| CC1CCN(C(=O)/C=C/C=C/c2ccc3c(c2)OCO3)CC1 [Compound 35] | 568 ± 54 | 733 ± 60 | 733 | – |
| CC1CCCCN1C(=O)/C=C/C=C/c1ccc2c(c1)OCO2 (stereo not drawn) [Compound 33] | 359 ± 50 | – | – | – |
| CCCCN(CCCC)C(=O)/C=C/C=C/c1ccc2c(c1)OCO2 [Compound 25, (2E,4E)-5-(1,3-Benzodioxol-5-yl)-N,N-dibutyl-2,4-pentadienamide] | 506 ± 74 | 760 ± 47 | 760 | IGABA,max (%) (α5β2γ2S GABAA receptors): 387 ± 20 %; IGABA,max (%) (α1β1γ2S GABAA receptors): 152 ± 30 %; mean plasma concn ([1]; 1 mg/kg body weight ip): 41.5 ± 8.7 ng/mL; mean plasma concn ([1]; 3 mg/kg body weight ip): 172.0 ± 19.0 ng/mL; mean plasma concn ([1]; 10 mg/kg body weight ip): 419.0 ± 37.2 ng/mL; IGABA,max (%) (α2β2γ2S GABAA receptors): 512 ± 26 %; stronger IGABA enhancement compared to α1β1γ2S receptors (α1β2γ2S GABAA receptors; α1β2γ2S vs α1β1γ2S): 5 fold; stronger IGABA enhancement compared to α1β1γ2S receptors (α1β3γ2S GABAA receptors; α1β3γ2S vs α1β1γ2S): 3.9 fold; IGABA,max (%) (α1β3γ2S GABAA receptors; α1β3γ2S, Xenopus oocytes): 587 ± 8 %; IGABA,max (%) (α3β2γ2S GABAA receptors): 617 ± 42 %; IGABA,max (%) (α4β2γ2S GABAA receptors): 419 ± 73 % |
| CCCN(CCC)C(=O)c1ccc(-c2ccc3c(c2)OCO3)cc1 [Compound 47] | 364 ± 55 | 603 ± 87 | 603 | – |
| CCCCN(CCCC)C(=O)c1ccccc1-c1ccc2c(c1)OCO2 [Compound 56] | 114 ± 11 | – | 165 ± 4 | – |
| CCCN(CCC)C(=O)c1ccc2cc3c(cc2c1)OCO3 [Compound 76] | 122 ± 26 | – | – | – |
| CCCCN(CCCC)C(=O)c1cccc2cc3c(cc12)OCO3 [Compound 73] | 514 ± 76 | 480 ± 85 | 480 | – |
| CCCN(CCC)C(=O)c1cccc2cc3c(cc12)OCO3 [Compound 72] | – | 706 ± 58 | 706 | – |
| O=C(/C=C/C=C/c1ccc2c(c1)OCO2)N1CCSCC1 [Compound 30] | 113 ± 17 | – | – | – |
| CCCCN(CCCC)C(=O)c1ccc2cc3c(cc2c1)OCO3 [Compound 77] | 138 ± 29 | – | – | – |
| O=C(/C=C/C=C/c1ccc2c(c1)OCO2)N1CCCCCC1 [Compound 28] | 294 | – | – | modulation of IGABA (%) (α1β2γ2S GABAA receptors; [2]): 294 ± 66 % |
